Reference: US20040170976A1, “Solubility reporter gene constructs” (priority 2000, published 2004)

Test: Fractionation of soluble and insoluble recombinant protein by cell lysis and centrifugation / SDS-PAGE
Format: physicochemical
Details: T. maritima proteins expressed in E. coli; SDS-PAGE of soluble and insoluble fractions
Method: E. coli strains MG1655 (F^−lam rph1) and KY1429 (F- araD139 Δ(argF-lac)169 lam flhD5301 fruA25 relA1 rpsL150 zhh50::Tn10 rpoH606(ts) deoC1) were transformed with expression plasmids encoding M36881 (LCK) or M86400 (PLA) for expression profiling. Cells were cultured at 37° C. in Luria Broth containing ampicillin. Protein expression was induced by addition of L-arabinose to a final concentration of 0.1% for 1 hour. KY1429 cells were cultured as above except initial growth was performed at 32° C. followed by a shift to 42° C. for non-permissive expression of rpoH606. Top10 cells (F^−-mcrA Δ(mrr-hsdRMS-mcrBC) φ80lacZΔM15 ΔlacX74 deoR recA1 araD139 Δ(ara-leu)7697 galU galK rpsL endA1 nupG) containing the ibpAB promoter fusion (pHK57), were transformed with expression constructs listed above. Beta-galactosidase assays were performed essentially as described by Miller (24). Fractionation of soluble and insoluble proteins was performed by centrifugation. Cultures were resuspended in 50 mM Tris pH 7.9, 50 mM NaCl, 1 mM MgCl2, 3 mM methionine and sonicated for 2 minutes on ice. Cell debris and insoluble protein aggregates were pelleted by centrifugation at 3000×g for 15 minutes. The soluble fraction was removed and the pellets resuspended in an equivalent volume of lysis buffer. […]

B1: TM0294: T. maritima glutamate 5-kinase (proB) (protein, UniProt Q9WYD0 1-353, looked up)
Glutamate 5-kinase: MIMKVVVKVGSNLLVGSSGLRKSYIAELCREVARLKSQGHEISIITSGARAAGFTYLGKGKRTQDLHIKQALCAVGQVQLMKVYENAFDFYGIKIAQILLTRDTFSNRKRYLNLRNTLIGLSEFDVVPIVNENDTVATEEITLGDNDTLAAMFSIAWDADFLVLFTTVDGVIDENGKLVERFDESVKLKDMGKSSWGTGGIRSKIESALMASRCGVKATICSGNDVSNLTRFVKGEPVGTVFEPQGRLKAKKAWIAFLSEPAGKIYVNKGAEEALKSGNSLLPVGVTGVEGTFDVGDVVEIVNEEGELVGRGIVNYSSSDLEKIAGHKSSDLKKILGYEGNKVVVHIDNMWVA
In the case of B1, the pre-determined expression characteristics is reported as “Insoluble”.
